Measured values reported in ChEMBL document CHEMBL3351781, “Assessment of antidotal efficacy of cholinesterase reactivators against paraoxon: In vitro reactivation kinetics and physicochemical properties” (2014).

The chains behind the UniProt entries cited, without tags or fusion partners. Where a name states a change or a piece, a line headed by the entry shows the natural chain unless it says otherwise.
UniProt P22303: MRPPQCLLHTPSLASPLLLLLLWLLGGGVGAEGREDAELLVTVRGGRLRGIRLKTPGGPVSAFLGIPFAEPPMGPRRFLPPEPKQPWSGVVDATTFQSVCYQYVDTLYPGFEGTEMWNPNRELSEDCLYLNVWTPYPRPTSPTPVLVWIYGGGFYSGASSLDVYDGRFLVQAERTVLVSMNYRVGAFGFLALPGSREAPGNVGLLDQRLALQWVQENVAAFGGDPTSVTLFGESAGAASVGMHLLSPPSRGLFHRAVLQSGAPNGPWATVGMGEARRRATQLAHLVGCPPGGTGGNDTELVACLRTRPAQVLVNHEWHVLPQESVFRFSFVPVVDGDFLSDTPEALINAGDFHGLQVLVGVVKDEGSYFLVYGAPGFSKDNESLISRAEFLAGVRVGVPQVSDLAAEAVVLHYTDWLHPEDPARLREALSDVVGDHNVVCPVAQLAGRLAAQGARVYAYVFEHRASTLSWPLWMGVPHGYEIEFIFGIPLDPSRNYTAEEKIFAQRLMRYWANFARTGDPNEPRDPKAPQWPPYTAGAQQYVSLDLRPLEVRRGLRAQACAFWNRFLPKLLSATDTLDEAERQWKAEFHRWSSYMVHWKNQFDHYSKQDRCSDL

Molecular target: Acetylcholinesterase (Homo sapiens) (UniProt P22303)
Assay: Maximum reactivation of paraoxon-inhibited AChE (unknown origin)

Compound	max activation [%]
NC(=O)c1cc[n+](C/C=C\C[n+]2ccc(/C=N/O)cc2)cc1	51
NC(=O)c1cc[n+](Cc2cccc(C[n+]3ccc(/C=N/O)cc3)c2)cc1	35
NC(=O)c1cc[n+](CCCC[n+]2ccc(/C=N/O)cc2)cc1	68
CC(=O)/C=N/O	55
NC(=O)c1cc[n+](Cc2ccccc2C[n+]2ccc(/C=N/O)cc2)cc1	31
C[n+]1ccc(/C=N/O)cc1	66
NC(=O)c1cc[n+](Cc2ccc(C[n+]3ccc(/C=N/O)cc3)cc2)cc1	34
O/N=C/c1cc[n+](CCC[n+]2ccc(/C=N/O)cc2)cc1	93
C[n+]1cccc(/C=N/O)c1	31
NC(=O)c1cc[n+](CCC[n+]2ccc(/C=N/O)cc2)cc1	66
O/N=C\c1cc[n+](Cc2ccccc2C[n+]2ccc(/C=N\O)cc2)cc1	55
C[n+]1ccccc1C=NO	68
CC(=O)/C(C)=N/O	20
O/N=C/c1cc[n+](Cc2ccc(C[n+]3ccc(/C=N/O)cc3)cc2)cc1	49
